By UniProt entry, the sequences of proteins in these tests, tags left out. Where a name states a change or a piece, a line headed by the entry shows the natural chain unless it says otherwise.
UniProt P61794: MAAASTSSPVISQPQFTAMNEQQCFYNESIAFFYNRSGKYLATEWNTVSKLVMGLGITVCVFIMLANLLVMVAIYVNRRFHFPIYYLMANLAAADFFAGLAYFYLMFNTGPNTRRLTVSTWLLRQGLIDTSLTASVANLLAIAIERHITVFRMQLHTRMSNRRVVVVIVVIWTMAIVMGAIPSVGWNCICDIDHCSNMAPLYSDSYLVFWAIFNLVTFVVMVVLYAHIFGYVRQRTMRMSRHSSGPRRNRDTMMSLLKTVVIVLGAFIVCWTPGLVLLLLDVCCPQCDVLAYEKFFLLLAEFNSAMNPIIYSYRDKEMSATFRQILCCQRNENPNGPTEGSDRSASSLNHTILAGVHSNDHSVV

According to ChEMBL document CHEMBL1148595, “Identification of Darmstoff analogs as selective agonists and antagonists of lysophosphatidic acid receptors” (Bioorg Med Chem Lett, 2006):

Biological target: Lysophosphatidic acid receptor 1 (Rattus norvegicus) (UniProt P61794)
Assay: Activity at LPA1 receptor in RH7777 rat hepatoma cell line
Format: cell-based

Emax: 55%
Structure (SMILES): C/C=C/C/C=C/C/C=C/CCCCCCCCC1OCC(COP(=O)(O)O)O1 (stereo unspecified)
